Most compounds without a hit are left out; they make up all but 0.94% or so of the library.
UUG fidelity: modulators of start codon recognition fidelity in yeast; AID 602363; activity score, % at 18.7 µM; S. cerevisiae UUG-firefly luciferase reporter, luminescence/redox ratio; 0.13% of 350,000 active;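 active = replicate mean at a twofold rise or more, about +100% in these data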;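 note: firefly luciferase made from a UUG start codon reports start codon fidelity; reporter light over untreated wells divided by growth signal over untreated wells; some hits fall short of that in this replicate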
PKA-R2B activ: activators of PKA-R2B holoenzyme, primary screen, biochemical, fluorescence polarization, Cy5-IP20, human; hit rate 0.079% among 340,000; activation, % at 11.4 µM; AID 504700, 2011; cAMP-dependent protein kinase catalytic subunit beta (Homo sapiens) + cAMP-dependent …; PKA-R2B holoenzyme dissociation; R2B truncated from residue 108, S112A mutant; 0% DMSO only, 100% 113 µM cGMP;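 active = activation above a cutoff set at the mean over all compounds plus 3 SD, cut at about 18% in these data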;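 note: higher means more holoenzyme dissociation and a rise in polarization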
PKA-R1A act: activators of PKA-R1A holoenzyme, primary screen, biochemical, fluorescence polarization, Cy5-IP20, bovine R1A, mouse PKAc. cAMP-dependent protein kinase type I-alpha regulatory subunit (Bos taurus) + …. PKA-R1A dissociation; scaled: DMSO 0%, 113 µM cGMP 100%. activation, % at 11.4 µM. hit rate 0.083% among 340,000;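 active = percent activation above the mean of all tested compounds plus 3 SD, cut at about 19% in these data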;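 note: higher means more PKAc released from R1A so a rise in polarization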
ABCB6 inh 2: ABCB6 transporter inhibitors, primary screen, K562-ABCB6 cells, flow cytometry, MLPCN library | K562-ABCB6 porphyrin accumulation, 1 h; active compounds read low | ATP-binding cassette sub-family B member 6 (Homo sapiens), Q9NP58 | AID 602162, 2011 | hit rate 0.19% among 360,000 | fluorescence ratio to DMSO, % at 10 µM;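 active = fluorescence ratio to DMSO below 75%, the collection mean minus 3 SD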;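 note: signal is porphyrin accumulated inside mitochondria; 100% equals median channel fluorescence of DMSO control wells; lower ratio means ABCB6 inhibition with less porphyrin fluorescence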
Granule exo inh: LAMP-1 surface exposure blockers, TALL-104 cells – cell-based, flow cytometry, MLPCN library, primary screen; TALL-104 LAMP-1 surface exposure; cells stimulated with thapsigargin and PMA; inhibition, % at 10 µM; hit rate 0.66% among 360,000; AID 651702, 2012;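 active = inhibition above about 55%, limit read from the data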
pCIP destab: p/CIP-EGFP fusion destabilizers, primary screen, fluorescence, F442A cells. decrease of EGFP signal, % at 10 µM. 16 h. Q05BA5. hit rate 0.01% among 290,000. AID 1984, 2009;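 active = EGFP signal decrease of at least 30% at 10 µM or well 3 SD below plate mean, unless failing retest; inactive = the rest, including hits failing retest or dose response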
R2B FP artifact: fluorescence polarization artefacts, biochemical, artefact control for PKA-R2B activator project; shares compounds with PKA-R2B activ; FP artifact counterscreen; activation, % at 11.4 µM; hit rate 6% among 270; AID 504796, 2011; in the data active = activation above about 20%;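 note: Cy5 labelled IP20 peptide probe with compound but no PKA protein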
PKA-R2B confirm: activators of PKA-R2B holoenzyme, confirmation, biochemical, fluorescence polarization, human. shares compounds with PKA-R2B activ. PKA-R2B complex, activation. activation, % at 11.4 µM. hit rate 9% among 270. AID 504797, 2011; in the data active = activation above about 19%
Numbers without * were called inactive; . = no result.

Abbreviations: A = UUG fidelity; B = PKA-R2B activ; C = PKA-R1A act; D = ABCB6 inh 2; E = Granule exo inh; F = pCIP destab; G = R2B FP artifact; H = PKA-R2B confirm
COc1ccc(NC(=O)Nc2ccc3c(c2)C(=O)N([C@H](C)CO)C[C@H](C)[C@@H](CN(C)C(=O)Nc2ccc(C(F)(F)F)cc2)O3)cc1
  A: 0; B: 19*; C: -6; D: 96; E: -1; F: .; G: 1; H: -3

CO[C@H]1CN(C)C(=O)c2cc(NS(C)(=O)=O)ccc2OC[C@@H](C)N(CC2CCOCC2)C[C@H]1C
  A: 11; B: .; C: .; D: .; E: .; F: .; G: .; H: .

Cc1ccc(C(=O)Nc2ccccc2C(=O)N2CCOCC2)cc1[N+](=O)[O-]
  A: .; B: 20*; C: 5; D: 98; E: -8; F: 2; G: 0; H: 4

Cc1ccc(C(=O)N2CCOCC2)cc1[N+](=O)[O-]
  A: -11; B: 8; C: 0; D: 96; E: 0; F: -16; G: .; H: .

Cc1noc(C)c1NC(=O)N(C)C[C@@H]1OCCCC[C@H](C)Oc2ccc(NS(=O)(=O)c3ccc(Cl)cc3)cc2C(=O)N([C@@H](C)CO)C[C@@H]1C
  A: 8; B: .; C: .; D: .; E: .; F: .; G: .; H: .

O=C(C[C@@H]1CC[C@@H](NC(=O)c2ccc(F)cc2)[C@H](CO)O1)NCCc1ccncc1
  A: -9; B: .; C: .; D: .; E: .; F: .; G: .; H: .

COc1cc2cc(CN(Cc3ccc4c(c3)OCO4)C(=O)c3ccco3)c(=O)[nH]c2cc1OC
  A: .; B: 21*; C: -3; D: 103; E: -2; F: .; G: 5; H: 2

CCN1CCN(c2ccc(S(=O)(=O)N3CCOCC3)cc2NC(=O)c2ccc(F)cc2Cl)CC1
  A: -12; B: 19*; C: -1; D: 95; E: -12; F: .; G: 2; H: 0

O=C(NC1CC1)c1ccc(F)cc1Cl
  A: -6; B: 23*; C: 4; D: 86; E: -5; F: 6; G: 1; H: 2

Cc1noc(C)c1NC(=O)Nc1ccc2c(c1)C(=O)N([C@H](C)CO)C[C@@H](C)[C@@H](CN(C)Cc1ccccc1)OCCCC[C@@H](C)O2
  A: 12; B: .; C: .; D: .; E: .; F: .; G: .; H: .

COc1ccc(S(=O)(=O)Nc2ccc3c(c2)OC[C@@H](C)N(C)C[C@@H](C)[C@H](OC)CN(C)C3=O)cc1
  A: -18; B: .; C: .; D: .; E: .; F: .; G: .; H: .

CCOC(=O)N1CCN(Cc2nc3c(c(=O)n(C)c(=O)n3C)n2Cc2ccc(F)cc2)CC1
  A: -2; B: 19*; C: -6; D: 98; E: -4; F: -16; G: 4; H: 4

COc1ccc(S(=O)(=O)N(C)C[C@H]2Oc3ccc(NC(=O)Nc4ccccc4)cc3C(=O)N([C@@H](C)CO)C[C@H]2C)cc1
  A: -5; B: .; C: .; D: .; E: .; F: .; G: .; H: .

C[C@H](CO)N1C[C@H](C)[C@H](CN(C)C(=O)C2CCCCC2)OCCCC[C@H](C)Oc2ccc(NC(=O)c3ccccc3)cc2C1=O
  A: 13; B: .; C: .; D: .; E: .; F: .; G: .; H: .

COc1ccc(S(=O)(=O)N(C)C[C@@H]2OCCCC[C@H](C)Oc3ccc(NC(=O)c4ccccc4)cc3C(=O)N([C@H](C)CO)C[C@H]2C)cc1
  A: -9; B: .; C: .; D: .; E: .; F: .; G: .; H: .

Cc1ccc(C(=O)N2CCN(c3ccc(C(F)(F)F)cn3)CC2)cc1
  A: -14; B: 20*; C: 7; D: 91; E: -2; F: 10; G: -1; H: 0

CCC[C@@H]1Cc2ccccc2N1C(C)=O
  A: -7; B: 20*; C: -5; D: 95; E: 27; F: .; G: -2; H: -3

N#Cc1cc([N+](=O)[O-])ccc1NC(=O)COC(=O)C1CCC(=O)N1 (stereo not drawn)
  A: .; B: 20*; C: -5; D: 95; E: 1; F: .; G: 1; H: 1

N#Cc1cc([N+](=O)[O-])ccc1NC(=O)COC(=O)C1CC2CCCC(C1)C2=O (stereo not drawn)
  A: .; B: 5; C: -3; D: 103; E: 2; F: .; G: .; H: .

CCN(CC)CCNC(=O)c1ccc(NC2=NC3CS(=O)(=O)CC3S2)cc1 (stereo not drawn)
  A: -4; B: 19*; C: 12; D: 100; E: -11; F: -1; G: 2; H: 0

O=C(NCCc1ccc(Cl)cc1)c1ccc(NC2=NC3CS(=O)(=O)CC3S2)cc1 (stereo not drawn)
  A: -16; B: -5; C: -6; D: 102; E: -1; F: 4; G: .; H: .

COc1ccc(S(=O)(=O)Nc2ccc3c(c2)C(=O)N([C@@H](C)CO)C[C@H](C)[C@H](CN(C)C(=O)Nc2ccc(C(F)(F)F)cc2)OCCCC[C@@H](C)O3)cc1
  A: -29; B: .; C: .; D: .; E: .; F: .; G: .; H: .

O=C(C[C@H]1CC[C@@H]2[C@H](COC[C@@H](O)CN2S(=O)(=O)c2ccc(F)cc2)O1)N[C@H]1CCN(Cc2ccccc2)C1
  A: 10; B: .; C: .; D: .; E: .; F: .; G: .; H: .

CN1CCN(C(=O)C2=C[C@H](C(C)(C)C)C[C@H](OCc3ccc(CO)cc3)O2)CC1
  A: -3; B: .; C: .; D: .; E: .; F: .; G: .; H: .

Cc1ccc(-c2nnc(NC(=O)CCS(=O)(=O)c3ccc(F)cc3)o2)c(C)c1
  A: .; B: 0; C: 6; D: 103; E: 12; F: .; G: .; H: .

In the list so far, 2 contain two or more sulfur atoms:
Abbreviations: A = UUG fidelity; B = PKA-R2B activ; C = PKA-R1A act; D = ABCB6 inh 2; E = Granule exo inh; F = pCIP destab; G = R2B FP artifact; H = PKA-R2B confirm
CCN(CC)CCNC(=O)c1ccc(NC2=NC3CS(=O)(=O)CC3S2)cc1 (stereo not drawn)
  A: -4; B: 19*; C: 12; D: 100; E: -11; F: -1; G: 2; H: 0

O=C(NCCc1ccc(Cl)cc1)c1ccc(NC2=NC3CS(=O)(=O)CC3S2)cc1 (stereo not drawn)
  A: -16; B: -5; C: -6; D: 102; E: -1; F: 4; G: .; H: .

Following part
Abbreviations: A = UUG fidelity; B = PKA-R2B activ; C = PKA-R1A act; D = ABCB6 inh 2; E = Granule exo inh; F = pCIP destab; G = R2B FP artifact; H = PKA-R2B confirm
O=C(CCS(=O)(=O)c1ccc(F)cc1)Nc1nnc(-c2ccc(F)cc2)o1
  A: .; B: 19*; C: -7; D: 104; E: -2; F: .; G: -2; H: 1

O=C(N/N=C/c1ccc(N2CCOCC2)s1)c1ccccc1Br
  A: .; B: -6; C: 1; D: 100; E: 7; F: 1; G: .; H: .

Clc1cccc(N/N=C/c2ccc(N3CCOCC3)s2)c1
  A: .; B: 21*; C: 7; D: 102; E: 6; F: 3; G: 6; H: -1

CCC(=O)N(Cc1cc2cc(OC)ccc2[nH]c1=O)c1ccc(C)cc1C
  A: 3; B: 21*; C: -6; D: 97; E: -1; F: 8; G: -3; H: -2

COc1ccc2[nH]c(=O)c(CN(C(C)=O)c3ccc(C)cc3C)cc2c1
  A: -9; B: -4; C: -13; D: 99; E: 13; F: 0; G: .; H: .

C[C@@H]1CN([C@@H](C)CO)C(=O)c2cc(NS(=O)(=O)c3ccc(Cl)cc3)ccc2O[C@@H]1CN(C)C(=O)NC1CCCCC1
  A: 0; B: .; C: .; D: .; E: .; F: .; G: .; H: .

Cc1ccc(-c2ccc3c(c2)O[C@H](CN(C)C(=O)Nc2ccc(C(F)(F)F)cc2)[C@H](C)CN([C@@H](C)CO)S3(=O)=O)cc1
  A: -19; B: .; C: .; D: .; E: .; F: .; G: .; H: .

COc1ccc(C(=O)NCc2cn3c(C)csc3n2)cc1OC
  A: -22; B: -13; C: -8; D: 89; E: -1; F: 6; G: .; H: .

CCOc1ccc(CC(=O)NCc2cn3c(C)csc3n2)cc1
  A: -18; B: 22*; C: -2; D: 95; E: -3; F: -3; G: 0; H: 4

COc1ccc(C)cc1NC(=O)C1CCN(C(=O)C2CC(=O)N(c3ccc(C)cc3)C2)CC1 (stereo not drawn)
  A: 0; B: -2; C: -14; D: 92; E: -3; F: -4; G: .; H: .

COc1ccccc1NC(=O)C1CCN(C(=O)C2CC(=O)N(c3ccc(C)cc3)C2)CC1 (stereo not drawn)
  A: -2; B: 20*; C: 5; D: 91; E: -2; F: 6; G: 6; H: 4

Assay outcomes deposited in PubChem BioAssay by several laboratories.
